The entries are a selection whose mix differs from that of the whole data set. The source made the active and inactive calls.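 The calls were made as follows: active = percent activation above the mean of all tested compounds plus 3 SD (cut at about 19% in these data); inactive = the rest.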

The chains behind the UniProt entries cited, without tags or fusion partners.
UniProt P00514, whole entry, looked up: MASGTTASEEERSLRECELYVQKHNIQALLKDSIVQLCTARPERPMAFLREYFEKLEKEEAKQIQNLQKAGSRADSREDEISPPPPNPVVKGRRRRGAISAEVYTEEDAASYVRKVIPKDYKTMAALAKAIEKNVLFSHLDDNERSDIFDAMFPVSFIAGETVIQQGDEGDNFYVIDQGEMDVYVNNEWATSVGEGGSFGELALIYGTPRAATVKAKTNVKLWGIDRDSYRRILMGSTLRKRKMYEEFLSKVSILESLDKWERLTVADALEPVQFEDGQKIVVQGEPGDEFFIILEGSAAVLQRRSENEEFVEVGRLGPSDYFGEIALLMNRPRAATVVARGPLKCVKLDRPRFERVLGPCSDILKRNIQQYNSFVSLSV

The target of the assay is cAMP-dependent protein kinase type I-alpha regulatory subunit (Bos taurus) + cAMP-dependent protein kinase catalytic subunit beta (Mus musculus) (UniProt P00514+P68181). Kind of assay: compounds dissociating PKAc from R1A subunit – biochemical, fluorescence polarization, Cy5-IP20, bovine R1A, mouse PKAc, primary screen (AID 504707).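 Also: higher means more PKAc released from R1A so a rise in polarization.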 To be noted: PKA-R1A dissociation, at 11.4 µM, stronger effect = higher value, scaled: DMSO 0%, 113 µM cGMP 100%.
Regarding `CCNC(=S)/N=C(\N)N[N+](=O)[O-]`, the activation is inactive: 0.73%. As to `O=P1(N(CCCl)CCCl)OCCC2CCCCN21` (centres undefined), the activation is inactive: -17%. Consider `O=[As](O)(c1ccccc1)c1ccc(O)cc1`, for which the activation was inactive: -13%. In the case of `CC(=O)NC(SC(=S)N(C)C)C(Cl)(Cl)Cl` (centres undefined), the activation was inactive: 3.93%. Regarding `O=[N+]([O-])c1ncn(CCn2cnc([N+](=O)[O-])n2)n1`, the activation is inactive: -6.9%.

On to `O=[N+]([O-])c1ccc(O)c(/C=N/Nc2ccc([N+](=O)[O-])cc2[N+](=O)[O-])c1`, for which the activation is inactive: 9.71%. For `O=C(OC1CN2CCC1CC2)c1cccc(Cl)c1` (centres undefined), the activation was inactive: -0.13%. The result for `C(Cc1nn[nH]n1)Cc1nn[nH]n1` reads inactive: -7.71%; that for `Nc1ccc([As](=O)(O)c2ccc([N+](=O)[O-])cc2)cc1`, inactive: 6.3%; that for `CN(C)C1(CNC(=O)c2ccc(Cl)c(S(N)(=O)=O)c2)CCCCC1`, inactive: -19.7%. The result for `O=P(Nc1ccccn1)(c1ccc(Br)cc1)c1ccc(Br)cc1` reads inactive: -4.94%. Take `COc1ccc(N)c([N+](=O)[O-])c1[N+](=O)[O-]`: the activation was inactive: 13%. In the case of `C[C@H]1OP(=O)(Oc2ccccc2)[C@H](O)[C@H](O)[C@H]1N=[N+]=[N-]` (some centres undefined), the activation is inactive: -10.1%. The result for `O=P(Nc1nc2ccccc2s1)(c1ccccc1)c1ccccc1` reads inactive: 5.42%; that for `O=P(Nc1nccs1)(c1ccccc1)c1ccccc1`, inactive: -3.91%. As to `CC(C)C(=O)NC(Sc1ccccc1)C(Cl)(Cl)Cl` (centres undefined), the activation is inactive: -16.5%. The result for `c1nnnn1CCn1cnnn1` reads inactive: 3.52%; that for `COc1ccccc1CNC(=O)COC(=O)C(O)(c1ccccc1)c1ccccc1`, inactive: -7.64%.

Regarding `CN(C(=O)Cc1ccc(Cl)c(Cl)c1)[C@@H]1CCCC[C@H]1N1CCCC1`, the activation was inactive: 8.01%. The result for `CC(C)/C=N\N=C(\N)N[N+](=O)[O-]` reads inactive: -7.75%. The result for `CC1(CBr)Cn2c(nc3ccccc3c2=O)S1` (centres undefined) reads inactive: -12.4%.

Turning to `CCOP(=O)(NC(=NC(C)c1ccccc1)NC(C)c1ccccc1)OCC` (centres undefined), the activation is inactive: 13.2%. As to `CCC1=CC2Cc3nc4ccc(Cl)cc4c(N)c3C(C1)C2` (centres undefined), the activation was inactive: -5.69%. Regarding `O=P1(Nc2ccccn2)COc2ccccc2OC1`, the activation was inactive: 2.27%. Regarding `CCOP(=O)(Nc1ccc(C)cn1)OCC`, the activation was inactive: -2.89%. `CC(C)(C)C(=O)NC(Sc1ncccn1)C(Cl)(Cl)Cl` (centres undefined): the activation is inactive: 0.17%. Consider `Clc1n[nH]nc1-c1nn[nH][15n]1`, for which the activation was inactive: -0.38%.

Consider `O=P1(N(CCCl)CCCl)NCCC(C(F)(F)F)O1` (centres undefined), for which the activation was inactive: 12.7%. In the case of `O=P1(Nc2ncccn2)COc2ccccc2OC1`, the activation is inactive: -4.56%.

For the origin of these results see PubChem BioAssay AID504707 (The Scripps Research Institute Molecular Screening Center, 2011).
